{"sequences": {"note": "Chains of the proteins cited; added tags and fusions are not shown.", "UniProt Q99558, whole entry": "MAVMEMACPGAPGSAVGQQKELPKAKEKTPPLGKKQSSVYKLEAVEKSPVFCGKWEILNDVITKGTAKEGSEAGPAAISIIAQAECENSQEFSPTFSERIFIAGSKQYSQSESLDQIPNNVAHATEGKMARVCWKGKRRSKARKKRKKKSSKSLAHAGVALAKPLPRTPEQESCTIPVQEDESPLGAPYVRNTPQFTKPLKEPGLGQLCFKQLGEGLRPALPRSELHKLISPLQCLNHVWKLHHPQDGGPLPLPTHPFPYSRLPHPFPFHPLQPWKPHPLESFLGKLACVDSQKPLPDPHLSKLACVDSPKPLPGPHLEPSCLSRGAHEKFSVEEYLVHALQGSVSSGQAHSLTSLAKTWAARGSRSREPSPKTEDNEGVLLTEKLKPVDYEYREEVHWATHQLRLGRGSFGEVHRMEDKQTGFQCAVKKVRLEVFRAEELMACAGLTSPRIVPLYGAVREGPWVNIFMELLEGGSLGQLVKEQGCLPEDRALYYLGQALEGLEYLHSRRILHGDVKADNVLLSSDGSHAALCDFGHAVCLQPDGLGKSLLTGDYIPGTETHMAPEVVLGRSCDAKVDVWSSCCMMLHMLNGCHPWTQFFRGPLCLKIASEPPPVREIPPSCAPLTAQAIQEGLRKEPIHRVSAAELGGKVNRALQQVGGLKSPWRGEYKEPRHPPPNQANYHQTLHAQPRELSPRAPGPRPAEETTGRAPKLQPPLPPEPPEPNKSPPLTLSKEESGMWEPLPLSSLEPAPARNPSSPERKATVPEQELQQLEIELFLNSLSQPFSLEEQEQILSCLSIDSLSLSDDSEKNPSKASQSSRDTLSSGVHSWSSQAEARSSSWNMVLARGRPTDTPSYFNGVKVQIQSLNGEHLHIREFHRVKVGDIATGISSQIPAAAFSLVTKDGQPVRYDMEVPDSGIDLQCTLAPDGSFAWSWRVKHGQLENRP"}, "source": "patent US11001569B2", "about": "“6-membered heteroaromatic substituted cyanoindoline derivatives as NIK inhibitors” (Janssen Pharmaceutica NV, priority 2016, dated 2021)", "key": {"[1]": {"system": "KMS12-BM (NIK WT) multiple myeloma cells", "experiment": "Antiproliferative activity on KMS12-BM multiple myeloma cells (CellTiter-Glo)", "conditions": "read-out: KMS-12 Proliferation inhibition (IC50 (nM)), 96 hr treatment, averaged values"}, "[2]": {"target": "recombinant human NF-kappaB-inducing Kinase (NIK/MAP3K14) (Homo sapiens, UniProt Q99558)", "experiment": "Inhibition of auto-phosphorylation of recombinant human NIK/MAP3K14 activity (AlphaScreen)", "conditions": "read-out: Auto-phosphorylation inhibition of NIK (IC50 (nM)), 25 microM ATP, averaged over all measurements on all batches"}, "[3]": {"system": "JJN-3 (NIK translocated) multiple myeloma cells", "experiment": "Antiproliferative activity on JJN-3 multiple myeloma cells (CellTiter-Glo)", "conditions": "read-out: JJN-3 Proliferation inhibition (IC50 (nM)), JJN-3 (NIK translocated) cells, 96 hr treatment, averaged values"}}}
{"smiles": "CC(C)Oc1ncccc1Nc1nccc(-c2cc(C#N)c3c(c2)[C@@](C)(CO)CN3)n1", "values": [{"measurement": "IC50", "setting": "[1]", "result": 7240, "unit": "nM"}, {"measurement": "IC50", "setting": "[2]", "result": 6.6, "unit": "nM"}, {"measurement": "IC50", "setting": "[3]", "result": 1550, "unit": "nM"}]}
